The values below come from article PMC12736141, “New Quinazolin-4(3H)-one Derivatives as Potential Antitumoral Compounds: Synthesis, In Vitro Cytotoxicity Against the HepG2 Cell Line, and In Silico VEGFR-2 Targeting-Based Studies” (Molecules, 2025).

In this test the test system is human hepatocellular carcinoma (HepG2). Description: MTT cytotoxicity assay on HepG2 cells. It counts as cell-based. The following applies: 48 h; SI = IC50 BJ/IC50 HepG2. The method, then:
Compounds 5a–c were dissolved in dimethylsulfoxide (DMSO) at an initial concentration of 10 mM, which was diluted 10 times with the characteristic medium and placed on plates at final concentrations ranging from 12.5 to 150 μM. The cells were seeded on plates of 96 wells at a density of 1 × 10^4 cells per well and incubated for 48 h. The culture medium was removed, and then 100 µL MTT (3-(4,5-dimethylthiazol-2-yl)-2,5-diphenyltetrazolium bromide) was added for 1 h. After that, it was removed, and 150 µL of pure dimethylsulfoxide (DMSO) was added. The samples were read using an ELISA Reader (BioTek, Winooski, VT, USA) at 570 nm. […] All determinations were made in triplicate.
The half-maximal inhibitory concentration (IC50) values were calculated to evaluate the potency of compounds 5a–c by fitting the investigational data with a 4-parameter logistic curve to obtain the dose-effect curves. The experimental IC50 results are expressed as mean values ± standard deviation (SD) of the three biological replicates.
Two-way analysis of variance (ANOVA) with a post hoc Bonferroni test was used to statistically examine the relative cell viability (%), compared to the negative control (NC), which was 100%. Data were analyzed using the […] software (GraphPad Prism 8.0.2. Software, La Jolla, CA, USA). […]
Background: Tetrazolium dyes change colour on reduction, which living cells bring about.

Structures are written as SMILES.

For `CNC(=O)c1cc(Oc2ccc(NC(=O)Nc3ccc(Cl)c(C(F)(F)F)c3)cc2)ccn1` [Sorafenib, reference compound], the “Selectivity Index (SI)” value was determined as 1.04.
